Source: ChEMBL document CHEMBL2046286, “Deconstructing 14-phenylpropyloxymetopon: minimal requirements for binding to mu opioid receptors” (Bioorg Med Chem, 2012)

Amino acid sequences for entries named in this document (tags omitted).
UniProt P33533, whole entry: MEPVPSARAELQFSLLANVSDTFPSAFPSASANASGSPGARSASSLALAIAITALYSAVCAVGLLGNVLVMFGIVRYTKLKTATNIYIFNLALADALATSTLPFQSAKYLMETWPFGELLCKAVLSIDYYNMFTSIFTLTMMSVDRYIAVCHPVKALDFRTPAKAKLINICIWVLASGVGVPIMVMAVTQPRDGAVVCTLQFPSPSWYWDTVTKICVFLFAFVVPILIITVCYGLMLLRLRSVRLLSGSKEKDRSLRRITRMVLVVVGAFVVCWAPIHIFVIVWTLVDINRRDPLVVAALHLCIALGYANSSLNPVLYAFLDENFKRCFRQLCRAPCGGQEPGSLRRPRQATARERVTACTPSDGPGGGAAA

Target: Delta-type opioid receptor (Rattus norvegicus, UniProt P33533)
Assay: Displacement of [3H]DPDPE from delta opioid receptor in rat brain homogenate after 1 hr by liquid scintillation counting
Format: tissue-based

With `CN(CCOCCCc1ccccc1)CCc1ccccc1` the Ki was 8.53 µM.
